These results are taken from PubChem BioAssay AID1745844 (Carcinogenic Potency Database (CPDB), 2022).

In this series the test system is rodent lifetime carcinogenesis bioassay, tumor incidence TD50. Briefly: carcinogenic potency in animals, long-term in vivo studies, CPDB compilation (AID 1745844).

The source made the active and inactive calls. No rule for the calls is given here.

Broadly, the TD50 is the 50% point of the dose-response relation for the toxic effect studied. Take `O=C1C2CC=CCC2C(=O)N1SC(Cl)(Cl)C(Cl)Cl` (stereo unspecified): the TD50 is 3140 mg/kg/day (mouse, strain B6C3F1, females, in feed, site: forestomach, lesion: several types, types named in the paper, dosed 93 weeks, study length 104 weeks); 22600 mg/kg/day (mouse, strain B6C3F1, females, in feed, site: forestomach, lesion: squamous-cell carcinoma, dosed 93 weeks, study length 104 weeks); 1400 mg/kg/day (mouse, strain B6C3F1, females, in feed, site: heart, lesion: hemangioendothelioma, dosed 93 weeks, study length 104 weeks); 398 mg/kg/day (mouse, strain B6C3F1, females, in feed, site: liver, lesion: hepatocellular carcinoma, dosed 93 weeks, study length 104 weeks); 89.4 mg/kg/day (mouse, strain B6C3F1, females, in feed, site: liver, lesion: several types, types named in the paper, dosed 93 weeks, study length 104 weeks); 134000 mg/kg/day (mouse, strain B6C3F1, females, in feed, site: lung, lesion: adenocarcinoma, dosed 93 weeks, study length 104 weeks). The TD50 runs as follows: (mouse, strain B6C3F1, females, in feed, site: small intestine, lesion: adenocarcinoma, dosed 93 weeks, study length 104 weeks) 512 mg/kg/day; (mouse, strain B6C3F1, females, in feed, site: small intestine, lesion: several types, types named in the paper, dosed 93 weeks, study length 104 weeks) 359 mg/kg/day; (mouse, strain B6C3F1, females, in feed, site: spleen, lesion: hemangioma, dosed 93 weeks, study length 104 weeks) 1470 mg/kg/day; (mouse, strain B6C3F1, males, in feed, site: forestomach, lesion: several types, types named in the paper, dosed 96 weeks, study length 104 weeks) 1810 mg/kg/day; (mouse, strain B6C3F1, males, in feed, site: forestomach, lesion: squamous-cell carcinoma, dosed 96 weeks, study length 104 weeks) 6190 mg/kg/day; (mouse, strain B6C3F1, males, in feed, site: heart, lesion: hemangioendothelioma, dosed 96 weeks, study length 104 weeks) 647 mg/kg/day. Moreover, the TD50 runs as follows: (mouse, strain B6C3F1, males, in feed, site: liver, lesion: hepatocellular carcinoma, dosed 96 weeks, study length 104 weeks) 138 mg/kg/day; (mouse, strain B6C3F1, males, in feed, site: liver, lesion: several types, types named in the paper, dosed 96 weeks, study length 104 weeks) 144 mg/kg/day; (mouse, strain B6C3F1, males, in feed, site: small intestine, lesion: adenocarcinoma, dosed 96 weeks, study length 104 weeks) 151 mg/kg/day; (mouse, strain B6C3F1, males, in feed, site: small intestine, lesion: several types, types named in the paper, dosed 96 weeks, study length 104 weeks) 137 mg/kg/day; (mouse, strain B6C3F1, males, in feed, site: spleen, lesion: hemangioendothelioma, dosed 96 weeks, study length 104 weeks) 79100 mg/kg/day; (mouse, strain B6C3F1, males, in feed, site: spleen, lesion: hemangioma, dosed 96 weeks, study length 104 weeks) 1570 mg/kg/day. For the same compound, the TD50 runs as follows: (mouse, strain B6C3F1, males, in feed, site: spleen, lesion: several types, types named in the paper, dosed 96 weeks, study length 104 weeks) 2560 mg/kg/day; (mouse, strain Charles River CD1, females, in feed, site: all sites, lesion: hemangiosarcoma, dosed 104 weeks, study length 110 weeks) 3130 mg/kg/day; (mouse, strain Charles River CD1, females, in feed, site: all sites, lesion: lymphosarcoma, dosed 104 weeks, study length 110 weeks) 1490 mg/kg/day; (mouse, strain Charles River CD1, males, in feed, site: Harderian gland, lesion: adenoma, dosed 104 weeks, study length 110 weeks) 298 mg/kg/day; (mouse, strain Charles River CD1, males, in feed, site: all sites, lesion: hemangiosarcoma, dosed 104 weeks, study length 110 weeks) 3310 mg/kg/day; (mouse, strain Charles River CD1, males, in feed, site: all sites, lesion: lymphosarcoma, dosed 104 weeks, study length 110 weeks) 1440 mg/kg/day. Moreover, the TD50 (rat, strain Charles River CD (Sprague-Dawley), females, in feed, site: kidney, lesion: renal-cell carcinoma, dosed 104 weeks, study length 104 weeks) was 776 mg/kg/day; the TD50 (rat, strain Charles River CD (Sprague-Dawley), females, in feed, site: kidney, lesion: several types, types named in the paper, dosed 104 weeks, study length 104 weeks) amounted to 916 mg/kg/day; the TD50 (rat, strain Charles River CD (Sprague-Dawley), females, in feed, site: liver, lesion: hepatocellular carcinoma, dosed 104 weeks, study length 104 weeks) was found to be 781 mg/kg/day; the TD50 (rat, strain Charles River CD (Sprague-Dawley), females, in feed, site: liver, lesion: neoplastic nodule, dosed 104 weeks, study length 104 weeks) was 124 mg/kg/day; the TD50 (rat, strain Charles River CD (Sprague-Dawley), females, in feed, site: liver, lesion: several types, types named in the paper, dosed 104 weeks, study length 104 weeks) was 120 mg/kg/day; the TD50 (rat, strain Charles River CD (Sprague-Dawley), females, in feed, site: mammary gland, lesion: fibroadenoma, dosed 104 weeks, study length 104 weeks) was 71.6 mg/kg/day. Further, the TD50 (rat, strain Charles River CD (Sprague-Dawley), males, in feed, site: kidney, lesion: renal-cell adenoma, dosed 104 weeks, study length 104 weeks) stood at 733 mg/kg/day; the TD50 (rat, strain Charles River CD (Sprague-Dawley), males, in feed, site: kidney, lesion: renal-cell carcinoma, dosed 104 weeks, study length 104 weeks) was 426 mg/kg/day; the TD50 (rat, strain Charles River CD (Sprague-Dawley), males, in feed, site: kidney, lesion: several types, types named in the paper, dosed 104 weeks, study length 104 weeks) was 272 mg/kg/day; the TD50 (rat, strain F344/DuCrj, females, in feed, site: kidney, lesion: renal-cell adenoma, dosed 104 weeks, study length 112 weeks) is 276 mg/kg/day; the TD50 (rat, strain F344/DuCrj, females, in feed, site: liver, lesion: hepatocellular carcinoma, dosed 104 weeks, study length 112 weeks) is 1010 mg/kg/day; the TD50 (rat, strain F344/DuCrj, females, in feed, site: liver, lesion: hyperplastic nodule, dosed 104 weeks, study length 112 weeks) was 64.4 mg/kg/day. For the same compound, the TD50 reads like this: (rat, strain F344/DuCrj, females, in feed, site: thyroid gland, lesion: c-cell adenoma, dosed 104 weeks, study length 112 weeks) 353 mg/kg/day; (rat, strain F344/DuCrj, males, in feed, site: kidney, lesion: renal-cell adenoma, dosed 104 weeks, study length 112 weeks) 30.3 mg/kg/day; (rat, strain F344/DuCrj, males, in feed, site: kidney, lesion: renal-cell carcinoma, dosed 104 weeks, study length 112 weeks) 345 mg/kg/day; (rat, strain F344/DuCrj, males, in feed, site: liver, lesion: hyperplastic nodule, dosed 104 weeks, study length 112 weeks) 104 mg/kg/day; (rat, strain Fischer 344, males, in feed, site: kidney, lesion: several types, types named in the paper, dosed 102 weeks, study length 104 weeks) 504 mg/kg/day; (rat, strain Fischer 344, males, in feed, site: kidney, lesion: tubular adenoma, dosed 102 weeks, study length 104 weeks) 5010 mg/kg/day. The TD50 (rat, strain Fischer 344, males, in feed, site: kidney, lesion: tubular carcinoma, dosed 102 weeks, study length 104 weeks) came out at 570 mg/kg/day.

Turning to `C[As](C)(C)=O`, the TD50 is 5.95 mg/kg/day (rat, strain F344/DuCrj, males, in drinking water, site: any site (literature study), lesion: several types, types named in the paper, dosed 104 weeks, study length 104 weeks) and 24.1 mg/kg/day (rat, strain F344/DuCrj, males, in drinking water, site: liver, lesion: hepatocellular adenoma, dosed 104 weeks, study length 104 weeks).

On to `NC(=O)Nc1ccc([As](=O)(O)O)cc1`, for which the TD50 was inactive: 4590 mg/kg/day (rat, strain FDRL, females, in feed, site: all sites, lesion: lymphatic leukemia, dosed 93 weeks, study length 104 weeks) and inactive: 4500 mg/kg/day (rat, strain FDRL, males, in feed, site: thymus gland, lesion: reticulum-cell sarcoma, dosed 93 weeks, study length 104 weeks).

Regarding `COP(=O)(OC)N1CCOCC1`, the carcinogen call is, setting by setting: (mouse, strain B6C3F1, females, by gavage, site: any site (literature study), lesion: several types, types named in the paper, dosed 103 weeks, study length 105 weeks) “inactive: negative”; (mouse, strain B6C3F1, males, by gavage, site: any site (literature study), lesion: several types, types named in the paper, dosed 103 weeks, study length 105 weeks) “inactive: negative”. The TD50 was 17600 mg/kg/day (mouse, strain B6C3F1, females, by gavage, site: lung, lesion: alveolar/bronchiolar adenoma + alveolar/bronchiolar carcinoma, dosed 103 weeks, study length 105 weeks); 1270 mg/kg/day (mouse, strain B6C3F1, males, by gavage, site: liver, lesion: hepatocellular adenoma + hepatocellular carcinoma + neoplastic nodule, dosed 103 weeks, study length 105 weeks); 3900 mg/kg/day (mouse, strain B6C3F1, males, by gavage, site: lung, lesion: alveolar/bronchiolar adenoma + alveolar/bronchiolar carcinoma, dosed 103 weeks, study length 105 weeks); 788 mg/kg/day (rat, strain Fischer 344, females, by gavage, site: all sites, lesion: mononuclear-cell leukemia, dosed 103 weeks, study length 105 weeks); 774 mg/kg/day (rat, strain Fischer 344, females, by gavage, site: any site (literature study), lesion: several types, types named in the paper, dosed 103 weeks, study length 105 weeks); 8240 mg/kg/day (rat, strain Fischer 344, females, by gavage, site: liver, lesion: hepatocellular adenoma + hepatocellular carcinoma + neoplastic nodule, dosed 103 weeks, study length 105 weeks). The TD50 is 503 mg/kg/day (rat, strain Fischer 344, males, by gavage, site: all sites, lesion: mononuclear-cell leukemia, dosed 103 weeks, study length 105 weeks); 283 mg/kg/day (rat, strain Fischer 344, males, by gavage, site: any site (literature study), lesion: several types, types named in the paper, dosed 103 weeks, study length 105 weeks); 2820 mg/kg/day (rat, strain Fischer 344, males, by gavage, site: liver, lesion: hepatocellular adenoma + hepatocellular carcinoma + neoplastic nodule, dosed 103 weeks, study length 105 weeks); 283 mg/kg/day (rat, strain Fischer 344, males, by gavage, site: testis, lesion: interstitial-cell tumor, dosed 103 weeks, study length 105 weeks).

With `CCN=C(N)N(N=O)[N+](=O)[O-]`, the TD50 reads like this: (mouse, strain CBA/H-T6, both sexes, in drinking water, site: any site (literature study), lesion: several types, types named in the paper, dosed 43 weeks, study length 69 weeks) 284 mg/kg/day; (mouse, strain CBA/H-T6, both sexes, in drinking water, site: duodenum, lesion: adenocarcinoma, dosed 43 weeks, study length 69 weeks) 4.2 mg/kg/day; (mouse, strain CBA/H-T6, both sexes, in drinking water, site: duodenum, lesion: several types, types named in the paper, dosed 43 weeks, study length 69 weeks) 2.84 mg/kg/day; (mouse, strain CBA/H-T6, both sexes, in drinking water, site: esophagus, lesion: several types, types named in the paper, dosed 43 weeks, study length 69 weeks) 3.85 mg/kg/day; (mouse, strain CBA/H-T6, both sexes, in drinking water, site: esophagus, lesion: squamous-cell carcinoma, dosed 43 weeks, study length 69 weeks) 5.6 mg/kg/day; (mouse, strain CBA/H-T6, both sexes, in drinking water, site: liver, lesion: hemangioendothelial sarcoma, dosed 43 weeks, study length 69 weeks) 70.3 mg/kg/day. Further, for the setting “mouse, strain CBA/H-T6, both sexes, in drinking water, site: stomach, lesion: several types, types named in the paper, dosed 43 weeks, study length 69 weeks”, the TD50 amounted to 8.03 mg/kg/day.
